Values quoted from earlier work as cited in US10039825B2, “Combination therapy with CD4 lymphocyte depletion and MTOR inhibitors” (Cedars-Sinai Medical Center, priority 2010, dated 2018).

Test system: metastatic RCC
Settings: cited from earlier work

Substance: interleukin-2: high dose immune cytokine, standard treatment for metastatic RCC
- patients with complete responses: 5-10%
